Measured values: ChEMBL document CHEMBL4616624, “STAT3 inhibitory activity of naphthoquinones isolated from Tabebuia avellanedae” (Bioorg Med Chem, 2020)

By UniProt entry, the sequences of proteins in these tests, tags left out.
UniProt P40763, whole entry: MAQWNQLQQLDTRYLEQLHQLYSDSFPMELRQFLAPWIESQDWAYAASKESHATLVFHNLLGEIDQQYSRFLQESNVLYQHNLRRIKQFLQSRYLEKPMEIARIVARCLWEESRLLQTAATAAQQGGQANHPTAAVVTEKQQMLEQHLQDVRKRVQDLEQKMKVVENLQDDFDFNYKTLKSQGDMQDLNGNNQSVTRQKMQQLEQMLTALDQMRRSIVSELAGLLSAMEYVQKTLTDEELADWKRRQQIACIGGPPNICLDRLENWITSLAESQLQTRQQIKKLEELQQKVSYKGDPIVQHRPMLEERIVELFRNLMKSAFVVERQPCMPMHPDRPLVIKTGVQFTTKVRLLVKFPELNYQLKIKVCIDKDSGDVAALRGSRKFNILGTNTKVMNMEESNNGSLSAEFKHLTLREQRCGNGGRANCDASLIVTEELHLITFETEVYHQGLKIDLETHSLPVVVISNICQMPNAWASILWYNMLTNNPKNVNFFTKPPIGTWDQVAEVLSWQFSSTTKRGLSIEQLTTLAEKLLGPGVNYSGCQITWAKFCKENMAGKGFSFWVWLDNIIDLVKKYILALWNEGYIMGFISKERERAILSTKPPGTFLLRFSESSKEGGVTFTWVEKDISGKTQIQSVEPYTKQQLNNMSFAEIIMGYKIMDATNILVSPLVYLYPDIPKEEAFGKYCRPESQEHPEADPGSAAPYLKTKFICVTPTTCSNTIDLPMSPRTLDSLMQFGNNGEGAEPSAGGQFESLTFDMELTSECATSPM

Experiments:
Format in all cases: cell-based
[1] = molecular target: T1, Signal transducer and activator of transcription 3 (Homo sapiens, UniProt P40763); experiment: Inhibition of IL-6 induced STAT3 phosphorylation at Tyr705 residue in human MCF7 cells at 1 uM preincubated for 1 hr followed by IL-6 stimulation and measured after 1 hr by Western blot analysis relative to control
[2] = molecular target: T1, Signal transducer and activator of transcription 3; experiment: Inhibition of IL-6 induced STAT3 phosphorylation at Tyr705 residue in human MCF7 cells assessed as phosphorylation intensity level at 0.5 uM preincubated for 1 hr followed by IL-6 stimulation and measured after 1 hr by Western blot analysis; design: scale not given: the % may be the effect or the level left
[3] = molecular target: T1, Signal transducer and activator of transcription 3; experiment: Inhibition of IL-6 induced STAT3 phosphorylation at Tyr705 residue in human MCF7 cells assessed as phosphorylation intensity level at 1 uM preincubated for 1 hr followed by IL-6 stimulation and measured after 1 hr by Western blot analysis; design: scale not given: the % may be the effect or the level left
[4] = molecular target: T1, Signal transducer and activator of transcription 3; experiment: Inhibition of IL-6 induced STAT3 phosphorylation at Tyr705 residue in human MCF7 cells assessed as phosphorylation intensity level at 2 uM preincubated for 1 hr followed by IL-6 stimulation and measured after 1 hr by Western blot analysis; design: scale not given: the % may be the effect or the level left
[5] = molecular target: T1, Signal transducer and activator of transcription 3; experiment: Inhibition of IL-6 induced STAT3 phosphorylation at Tyr705 residue in human MCF7 cells assessed as phosphorylation intensity level at 4 uM preincubated for 1 hr followed by IL-6 stimulation and measured after 1 hr by Western blot analysis; design: scale not given: the % may be the effect or the level left

inhibition [1]: 100%
Activity [2]: 52%
Activity [3]: 13%
Activity [4]: 9%
Activity [5]: 5%
Compound: CC(=O)c1cc2c(o1)C(=O)c1ccccc1C2=O [NAPABUCASIN]
